The values that follow are results of earlier work, collected in patent publication US20250108091A1, “PROTEIN FORMULATION, PREPARATION METHOD THEREFOR AND USE THEREOF” (BEIJING LIANGYUAN BIO-SCIENCE, LLC, priority 2022, published 2025).

The target of one data set is T1, IL2Rα (CD25) (Homo sapiens, UniProt P01589).
T1 sequence (P01589 22-272): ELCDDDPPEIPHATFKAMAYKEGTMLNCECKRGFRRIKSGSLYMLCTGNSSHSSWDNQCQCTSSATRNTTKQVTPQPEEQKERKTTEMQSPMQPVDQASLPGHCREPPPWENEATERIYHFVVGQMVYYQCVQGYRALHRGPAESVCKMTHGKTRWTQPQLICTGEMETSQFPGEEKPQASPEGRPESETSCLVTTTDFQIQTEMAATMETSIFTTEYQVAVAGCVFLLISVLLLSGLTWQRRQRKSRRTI
To be noted: low affinity; cited from earlier work.

The target of a further data set is T2, αβγ trimer (Homo sapiens, UniProt P01589+P14784+P31785).
T2 sequence (P01589 22-272): T1 sequence (P01589 22-272)
T2 sequence (P14784 27-551): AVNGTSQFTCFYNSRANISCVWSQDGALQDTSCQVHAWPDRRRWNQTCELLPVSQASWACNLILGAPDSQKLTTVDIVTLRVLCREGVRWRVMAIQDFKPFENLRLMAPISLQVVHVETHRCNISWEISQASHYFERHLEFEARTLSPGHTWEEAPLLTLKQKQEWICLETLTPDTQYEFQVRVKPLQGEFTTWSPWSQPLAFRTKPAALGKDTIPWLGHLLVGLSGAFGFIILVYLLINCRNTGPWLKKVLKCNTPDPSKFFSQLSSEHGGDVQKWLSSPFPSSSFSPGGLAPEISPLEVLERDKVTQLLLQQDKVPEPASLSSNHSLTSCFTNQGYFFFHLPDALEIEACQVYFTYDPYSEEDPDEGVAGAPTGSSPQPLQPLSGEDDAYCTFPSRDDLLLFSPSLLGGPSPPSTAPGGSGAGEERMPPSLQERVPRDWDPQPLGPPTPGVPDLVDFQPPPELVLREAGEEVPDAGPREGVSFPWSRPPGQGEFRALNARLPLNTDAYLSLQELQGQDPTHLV
T2 sequence (P31785 23-369): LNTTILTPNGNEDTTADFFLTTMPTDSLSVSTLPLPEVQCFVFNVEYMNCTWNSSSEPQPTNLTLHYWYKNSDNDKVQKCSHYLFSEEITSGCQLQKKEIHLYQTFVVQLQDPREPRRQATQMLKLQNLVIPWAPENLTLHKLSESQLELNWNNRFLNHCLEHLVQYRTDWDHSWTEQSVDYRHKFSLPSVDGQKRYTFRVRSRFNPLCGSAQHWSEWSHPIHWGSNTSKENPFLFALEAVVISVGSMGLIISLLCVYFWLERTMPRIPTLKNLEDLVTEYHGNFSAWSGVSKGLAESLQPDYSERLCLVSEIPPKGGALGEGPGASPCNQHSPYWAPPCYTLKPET
To be noted: high affinity; cited from earlier work.

In the case of “IL2: T cell growth factor, glycoprotein of four α-helices, molecular weight 15.5 Kd”, the dissociation constant (Kd) (commonly the concentration at which binding is half-saturated) with IL2Rα (CD25) is approximately 10 nM; in the data set with αβγ trimer, approximately 0.01 nM.
